Assay results published in PubChem BioAssay AID1662 (Broad Institute, 2009).
The list shows a part of the results, in another mix than the full data. Calls of active or inactive are those of the source.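 The calls were made as follows: active = mean replicate score, as percent of positive control median, at least 50; inconclusive = mean below 50 but one replicate at or above 50; inactive = mean and every replicate below 50.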

Experiment: S. pyogenes SKKanGAS growth inhibitors in kanamycin, primary screen, streptokinase expression inhibitor project, SKKanGAS strain, BacTiter-Glo luminescence (AID 1662);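 also: strain carries kanamycin resistance gene driven by streptokinase promoter and grows in 40 µg/ml kanamycin; loss of luminescence reflects streptokinase promoter inhibition or plain growth inhibition; 0% = median of DMSO wells and 100% = positive control at its reference dose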
Details: 6 h, at 7.5 µM, active compounds read high

Compound | inhibition
CCCCOc1ccc(C(=O)NCC2(N3CCCCC3)CCCCC2)cc1OC | inactive: 2.54%
Cc1cc(SC(NC(=O)c2ccccc2)C(Cl)(Cl)Cl)nc(C(C)C)n1 (stereo not drawn) | inactive: 3.53%
CCOC(=O)Nc1ccc([As](=O)(O)O)c(O)c1 | inactive: 3.75%
C/C=C1/CC(C)C(C)(O)C(=O)OCC2CCN3CCC(OC1=O)C23 (stereo not drawn) | inactive: 4.93%
O=P(Nc1ccccn1)(c1cccc2ccccc12)c1cccc2ccccc12 | inactive: -1.28%
Cc1cc(SC(NC=O)C(Cl)(Cl)Cl)ncn1 (stereo not drawn) | inactive: -15.1%
O=[N+]([O-])c1ccc(Nc2ccc(Oc3ccc([N+](=O)[O-])cc3[N+](=O)[O-])cc2)c([N+](=O)[O-])c1 | inactive: 13.6%
CCOC(=O)Nc1cccc([As](=O)(O)O)c1 | inactive: -5.31%
O=C(COc1ccccc1)OC1CN2CCC1CC2 (stereo not drawn) | inactive: -1.57%
O=C(Nc1ccncc1[N+](=O)[O-])c1ccc([N+](=O)[O-])cc1[N+](=O)[O-] | inactive: 9.5%
COP1(=S)c2c(C)nn(CCC#N)c2N=C(c2ccc(F)cc2)N1C (stereo not drawn) | inactive: -2.95%
CCC(C)N(CC(C)C)C(=S)SC(NC(C)=O)C(Cl)(Cl)Cl (stereo not drawn) | inactive: 32.7%
O=C(OC1CN2CCC1CC2)c1cccc([N+](=O)[O-])c1 (stereo not drawn) | inactive: -4.68%
CCOC(=O)c1ccc(NC(=O)C(C)(CCl)SC)cc1 (stereo not drawn) | inactive: -3.55%
COc1ccc2nc(NP(=O)(c3ccccc3)c3ccccc3)sc2c1 | inactive: 1.93%
COc1cc(I)ccc1[As](=O)(O)O | inactive: -2.85%
Cc1c2c(nc3ccccc13)SC(C(Cl)Cl)C2 (stereo not drawn) | inactive: 4.77%
O=C(OC1CN2CCC1CC2)C12CC3CC(CC(C3)C1)C2 (stereo not drawn) | inactive: -8.65%
Cc1cc(=O)[nH]c(N[N+](=O)[O-])n1 | inactive: -1.49%
COc1ccc(N/C(=N/P(=O)(N2CCOCC2)N2CCOCC2)N2CCOCC2)cc1 | inactive: 7.16%
Cc1ccc(OP(=O)(Nc2ccc([N+](=O)[O-])cn2)Oc2ccc(C)cc2)cc1 | inactive: -0.177%

Compound | inhibition
Cc1ccc2nc3c(c(C)c2c1)CC(C(Cl)Cl)S3 (stereo not drawn) | inactive: -14%
O=[As](O)(c1ccc(O)cc1)c1ccccc1O | inactive: 0.231%
C[As](=O)(O)c1cccc(C(=O)O)c1 | inactive: 2.62%
CCN(CC)C(=S)SC(NC=O)C(Cl)(Cl)Cl (stereo not drawn) | inactive: -2.39%
CC(C)NC(=O)NP(=O)(Oc1ccccc1)Oc1ccccc1 | inactive: -0.348%
O=[N+]([O-])c1cc([N+](=O)[O-])c(-c2ccn[nH]2)s1 | inactive: 2.25%
ClCCSc1nnc(-c2cccnc2)o1 | inactive: 0.521%
CC(C)c1ccc(OP(=O)(Nc2ccccn2)Oc2ccccc2F)cc1 (stereo not drawn) | inactive: 0.623%
Nc1ccccc1[As](=O)(O)c1ccccc1 | inactive: -1.12%
O=C(O)COc1ccc([As](=O)(O)O)cc1[N+](=O)[O-] | inactive: 2.34%
CCOP1(=S)c2c(C)nn(CCC#N)c2N=C(c2ccccc2F)N1C (stereo not drawn) | inactive: -7.62%
O=P(Nc1nccs1)(c1ccccc1)c1nc2ccccc2s1 (stereo not drawn) | inactive: -30.3%
O=P(Nc1nccs1)(Oc1ccccc1)Oc1ccccc1 | inactive: -28.9%
CS(=O)(=O)c1cc([N+](=O)[O-])c2no[n+]([O-])c2c1 | inactive: -9.75%
N#CCCN(C(=O)COC(=O)C(O)(c1ccccc1)c1ccccc1)c1ccc(F)cc1 | inactive: -3.14%
CN(C(=O)Cc1ccccc1)[C@@H]1CC[C@]2(CCCO2)C[C@H]1N1CCCC1 | inactive: 1.11%
CCOP1(=S)c2c(C)nn(CCC#N)c2N=C(c2ccc(F)cc2)N1C (stereo not drawn) | inactive: -2.42%
CN(C)C(=O)c1cc([N+](=O)[O-])cc2c1-c1c(cc([N+](=O)[O-])cc1[N+](=O)[O-])C2=O | inactive: 31.1%
O=[N+]([O-])c1ccc2c(c1)nnn2O | inactive: 0.015%
CN(C(=O)Cc1ccc(Cl)c(Cl)c1)[C@H]1CC[C@@]2(CCCO2)C[C@@H]1N1CCCC1 | inactive: -2.59%
NC(=O)Nc1ccc([As](=O)(O)O)cc1 | inactive: -1.84%

Compound | inhibition
O=[As](O)(c1cccc(O)c1)c1cccc(O)c1 | inactive: -7.82%
Cc1cccc(OCC(=O)OC2CN3CCC2CC3)c1 (stereo not drawn) | inactive: 1.73%
O=C(OC1CN2CCC1CC2)c1ccc(Cl)cc1 (stereo not drawn) | inactive: 3.64%
COc1cc(C(=O)NCC2(N3CCOCC3)CCCCC2)cc(Cl)c1OC(C)C | inactive: -5.13%
O=[As](O)(O)c1cccnc1 | inactive: -1.44%
CS(=O)(=O)c1ccc(Cl)c(NC(=O)COC(=O)C(O)(c2ccccc2)c2ccccc2)c1 | inactive: 1.22%
COc1cc(C2NCCC3(OCCO3)C2(C)C)cc(OC)c1OC (stereo not drawn) | inactive: 0.307%
CCOP(=O)(Nc1cccc2ccccc12)OCC | inactive: 1.89%
Nc1cccc2c([As](=O)(O)O)cccc12 | inactive: 0.964%
Cc1ccc(NCCc2c([N+](=O)[O-])cc([N+](=O)[O-])cc2[N+](=O)[O-])cc1 | inactive: 10.5%
CCCOP(=S)(Nc1nc(N)cc(=O)[nH]1)OCCC | inactive: 28.6%
Clc1n[nH]nc1-c1nn[nH][15n]1 | inactive: 1.84%
CC(C)(C)C(=O)NC(Sc1ncccn1)C(Cl)(Cl)Cl (stereo not drawn) | inactive: 8.9%
O=P1(Nc2ccccn2)COc2ccccc2OC1 | inactive: -7.52%
CCC1=CC2Cc3nc4ccc(Cl)cc4c(N)c3C(C1)C2 (stereo not drawn) | inactive: 0.872%
CCOP(=O)(NC(=NC(C)c1ccccc1)NC(C)c1ccccc1)OCC (stereo not drawn) | inactive: -1.34%
CN(CCCl)Cc1cc(Cl)c(NC2=NCCN2)c(Cl)c1 | inactive: -4.87%
CCOP(=O)(Nc1ccc(C)cn1)OCC | inactive: -1.17%
CC(C)/C=N\N=C(\N)N[N+](=O)[O-] | inactive: -0.0345%
CN(C(=O)Cc1ccc(Cl)c(Cl)c1)[C@@H]1CCCC[C@H]1N1CCCC1 | inactive: -3.7%
O=[As](O)(c1ccccc1Br)c1ccccc1Br | inactive: 3.64%
